One may read the IC50 as the concentration that inhibits the measured activity by half.

Chains of the proteins cited; added tags and fusions are not shown.
UniProt P41597, whole entry: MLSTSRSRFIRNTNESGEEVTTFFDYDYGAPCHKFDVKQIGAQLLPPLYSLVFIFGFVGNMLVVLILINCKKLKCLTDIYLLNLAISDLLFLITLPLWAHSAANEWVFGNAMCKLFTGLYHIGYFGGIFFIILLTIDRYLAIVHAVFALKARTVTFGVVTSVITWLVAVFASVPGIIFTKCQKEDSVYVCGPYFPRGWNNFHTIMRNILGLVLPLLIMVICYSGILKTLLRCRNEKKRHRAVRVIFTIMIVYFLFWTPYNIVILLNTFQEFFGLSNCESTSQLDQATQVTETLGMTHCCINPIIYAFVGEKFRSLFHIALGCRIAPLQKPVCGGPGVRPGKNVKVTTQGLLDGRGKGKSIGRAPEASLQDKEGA
UniProt P51681, whole entry: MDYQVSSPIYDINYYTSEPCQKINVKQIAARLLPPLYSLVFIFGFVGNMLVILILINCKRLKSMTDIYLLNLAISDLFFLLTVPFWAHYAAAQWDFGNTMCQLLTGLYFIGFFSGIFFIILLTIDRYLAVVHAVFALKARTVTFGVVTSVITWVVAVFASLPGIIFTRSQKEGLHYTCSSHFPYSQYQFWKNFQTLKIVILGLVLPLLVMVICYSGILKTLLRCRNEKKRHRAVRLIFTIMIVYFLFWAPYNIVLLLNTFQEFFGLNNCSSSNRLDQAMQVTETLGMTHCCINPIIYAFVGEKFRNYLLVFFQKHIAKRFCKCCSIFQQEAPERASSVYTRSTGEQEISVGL

In one test the target is CCR2 (Homo sapiens, UniProt P41597). The experiment in a line: CCR2 in vitro test: intracellular calcium signal detected by FLIPR. Conditions: read-out: IC50 detected by FLIPR, CCR2; HEK293 cells expressing CCR2, agonist MCP-1 at EC80, calcium signal. The procedure:
(§1) Experimental Example 1: CCR2/CCR5 In Vitro Test
(§2) The intracellular calcium signal was detected by FLIPR, and the IC50 value of the compound was used as an index to evaluate the inhibitory effect of the compound on CCR2 and CCR5 receptors.
(§3) 1. Cell line: The cells were inoculated and incubated in a 5% CO2 incubator at 37° C. overnight.
(§4) CCR2/CCR5 density: 1 M (20 k/well)
(§5) 2. Reagents: Fluo-4 Direct, (Invitrogen, Cat #F10471)
(§6) The compound was dissolved in DMSO to prepare a 10 mM solution, and the compound solution was placed in a nitrogen box.
(§7) Agonist reference compounds:
(§8) Preparation of probenecid in FLIPR assay buffer: 1 mL of FLIPR assay buffer was added to […] of probenecid to prepare a 250 mM solution, which is prepared fresh daily. […]
(§9) (f) For DRC plate: • 1) Run the program on FLIPRTETRA. • 2) Read the fluorescent signal. • 3) Transfer 10 μL of compound from the DRC plate to the cell plate. • 4) Read the fluorescent signal. • 5) Calculate the “maximum−minimum” from Read 90 to the maximum allowed. […]
(§10) (g) For the composite plate (1-add): • 1) Run the program on FLIPRTETRA. • 2) Transfer 10 μl, of 5×EC80 concentration of the agonist reference compound from the composite plate to the cell plate. • 3) Read the fluorescent signal. • 4) Calculate the “maximum−minimum” from Read 90 to the maximum allowed. […]
On the technique in general: A change in cytosolic calcium serves as a functional read-out for many receptors and channels.

The target in the next test is CCR5 (Homo sapiens, UniProt P51681). As to the kind of experiment: CCR5 in vitro test: intracellular calcium signal detected by FLIPR. As to conditions: read-out: IC50 detected by FLIPR, CCR5; HEK293 cells expressing CCR5, agonist RANTES at EC80, calcium signal. The procedure: as §1, §2, §3, §4, §5, §6, §7, §8, §9, §10

In the case of `CCCCOCCOc1ccc(-c2ccc(S(=O)(=O)C(C)C)c(/C=C/C(=O)Nc3ccc([S@@+]([O-])Cc4cncn4CCC)cc3)c2)cc1`, the IC50 at CCR2 turned out to be 25.4 nM; on CCR5, 1.3 nM.

The values above are taken from patent US11155523B2, “Biphenyl compound as CCR2/CCR5 receptor antagonist” (Medshine Discovery Inc., priority 2016, dated 2021).
